Bioassay records from PubChem.
Sampled rows, rich in hits. Any-hit rate of the full collection: about 16%.
miR-21 FLuc – miR-21 reporter, rising signal | HeLa miR-21 FLuc reporter, luciferase, 48 h | Potency, µM (highest dose often 38.3 µM), for inactives: at the top dose reporter change, positive = more light | 340,000 tested, under 10 active | AID 2288; active = well fitted rising curve with a large enough effect; inconclusive = small, poorly fitted or top-dose-only effect; inactive = no such curve, though single readings can be large or run the other way;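 further: % of control where 0% means no effect; miR-21 action dims this reporter so a rising signal means less miR-21 action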
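HeLa cells stably expressing CMV-driven firefly luciferase with a downstream miR-21 binding sequence, endogenously expressing miR-21, were treated with titrations (up to about 40uM final) for 48 hours at 37 degree Celsius. Luciferase luminescence was read after lysis.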
DT40 TDP1 no CPT – qHTS for Inhibitors of human tyrosyl-DNA phosphodiesterase 1 (TDP1): qHTS in cells in absence of CPT | DT40 Tdp1-/- hTDP1 cells, no CPT, ATP luminescence, 48 h | Potency, µM (series often up to 46.2 µM), for the others: at the top dose activity change, negative = growth inhibition, usual class: inhibitors | 420,000 tested, 15% active; further: potency means the concentration at half of the fitted maximal effect; on the % scale 0 is the no-effect control and ±100 the full control effect; nearly all actives have a fitted effect of over 55% in size
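Compound effects on proliferation are scored in DT40 Tdp1-/-;hTDP1 cells in the absence of CPT. ATP levels (CellTiter-Glo luminescence) are recorded after a ≥48 hr, 37 °C incubation.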
TDP1 block – inhibitors of human tyrosyl-DNA phosphodiesterase TDP1; Q9NUW8; recombinant TDP1, AlphaScreen DNA substrate cleavage; Potency, µM (doses to about 130 µM), for inactives: at the top dose activity change, negative = inhibition, most hits filed as inhibitors; 350,000 tested, 0.28% active; further: potency means the concentration at half of the fitted maximal effect; on the % scale 0 is the no-effect control and ±100 the full control effect; nearly all actives have a fitted effect of over 40% in size
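Recombinant human Tdp1 (E. coli-expressed, 1 nM final) preincubated with compounds 15 min at room temperature, then 5'-biotin/3'-phosphotyrosine-FITC DNA substrate (15 nM final) added for 5 min. AlphaScreen beads (10 ug/ml final) added 10 min; cleavage lowers signal.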
TDP1 cell CPT – DT40-hTDP1 cell growth loss with CPT. chicken DT40 Tdp1-/-;hTDP1 cells + 20 nM CPT, ATP luminescence, 48 h. Potency, µM (series often up to 46.2 µM), inactives show at the top dose activity change, negative = growth inhibition, hits mostly inhibitors. 420,000 tested, 12% active; further: potency means the concentration at half of the fitted maximal effect; on the % scale 0 is the no-effect control and ±100 the full control effect; nearly all actives have a fitted effect of over 55% in size
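Cell growth measured by CellTiter-Glo luminescence after a minimum 48 h, 37 C compound exposure with 20 nM CPT in Tdp1-knockout DT40 cells stably expressing hTDP1, seeded 400/well; qHTS titration format.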
uPA generation – cell surface uPA generation inhibition. cell surface uPA generation assay, qHTS. Potency, µM (top dose mostly 38.3 µM), for the others: at the highest dose activity change, negative = inhibition, hits mostly inhibitors. 330,000 tested, 0.31% active; active means well fitted inhibition curve with a large enough effect; inconclusive means small, poorly fitted or top-dose-only effect; inactive means no such curve, though single readings can be large or run the other way; tested in mouse RAW 264.7 cells; further: potency means the concentration at half of the fitted maximal effect; on the % scale 0 is the no-effect control and ±100 the full control effect; nearly all actives have a fitted effect of over 55% in size
Numbers without * were called inactive; ? = inconclusive; nt = no result given; [ ] = another dose, or the depositor's remark. Unless noted, the call rests on the fitted dose curve; in most records, active means well fitted curve in the direction sought with a large enough effect; inconclusive means small, poorly fitted or top-dose-only effect, or another doubt; inactive means no such curve, though single readings can be large; an effect the other way counts as inactive or inconclusive.

Field names – A = miR-21 FLuc; B = DT40 TDP1 no CPT; C = TDP1 block; D = TDP1 cell CPT; E = uPA generation
1: CCOC(=O)N1CCc2c(sc3c2c(=O)n(-c2ccc(Cl)cc2)c(=O)n3CC(=O)c2ccc(F)cc2)C1
  A: -9%	B: 21µM*	C: 6%	D: ?	E: nt

2: Cc1ccccc1OCC(=O)OCC(=O)NC1CCCC1
  A: nt	B: -1%	C: nt	D: 7%	E: nt

3: CCOC(=O)N1CCc2c(sc3c2c(=O)n(Cc2ccccc2)c(=O)n3CC(=O)Nc2ccc(F)cc2)C1
  A: 12%	B: 10µM*	C: 1%	D: 5.8µM*	E: nt

4: COC(=O)c1ccc2nc(-c3cccc(Br)c3)c(Cc3ccccc3OC)n2c1
  A: nt	B: 21µM*	C: nt	D: ?	E: nt

5: COC(=O)c1ccc2nc(-c3ccc(F)cc3)c(Cc3ccccc3OC)n2c1
  A: nt	B: 18µM*	C: nt	D: 21µM*	E: nt

6: CCc1nc2ccc(C(=O)NCc3ccccc3OC)cn2c1N(CC)CCN(C)C
  A: nt	B: -9%	C: nt	D: -3%	E: nt

7: Cc1ccccc1N(CC(=O)NCCc1ccccc1)C(=O)CCC(=O)Nc1ccccn1
  A: 4%	B: -27%	C: -6%	D: -26%	E: 5%

8: CN(C)C(=S)Nc1cccc(F)c1
  A: ?	B: -15%	C: -4%	D: 5%	E: 15%

9: Cc1ccc(NNC(=S)Nc2ccc(C(C)C)cc2)c(C)c1
  A: -8%	B: 16µM*	C: 9%	D: ?	E: -2%

10: Cc1ccc(NC(=S)NNC(=S)Nc2ccc(C)cc2)cc1
  A: nt	B: 2.3µM*	C: nt	D: 6.5µM*	E: -5%

11: Cc1ccc(NC(=S)NNC(=O)Nc2ccccc2)cc1
  A: -58%	B: ?	C: 5%	D: ?	E: -8%

12: CC(C)(C)NNC(=S)Nc1cccc(F)c1
  A: 3%	B: 15µM*	C: 4%	D: ?	E: -5%

13: CN(C)C(=S)Nc1cccc(C(F)(F)F)c1
  A: -13%	B: ?	C: 1%	D: 26µM*	E: 8%

14: Cc1ccc(NC(=O)CCC(=O)NNC(=S)Nc2ccc(F)cc2)c(C)c1
  A: -1%	B: -15%	C: -9%	D: -4%	E: -2%

15: CCN1C(C)=C(C(=O)OC(C)C)C(c2ccccc2Cl)C(C(=O)O)=C1C(=O)O (configuration not stated)
  A: nt	B: nt	C: 10%	D: nt	E: nt

16: Cc1ccc(NC(=S)NNC(=S)Nc2cccc(C(F)(F)F)c2)cc1
  A: -20%	B: 29µM*	C: 4%	D: ?	E: -2%

17: CC(NC(=S)Nc1cccc(C(F)(F)F)c1)C(C)(C)C (configuration not stated)
  A: ?	B: 16µM*	C: -5%	D: ?	E: 0%

18: FC(F)(F)c1cccc(NC(=S)NNC(=S)Nc2ccc(Cl)cc2)c1
  A: ?	B: nt	C: 8%	D: nt	E: nt

19: N#Cc1cccc(NC(=O)CNc2cc(S(=O)(=O)N3CCOCC3)ccc2N2CCCC2)c1
  A: nt	B: 23µM*	C: 9%	D: ?	E: 1%

20: CC(=O)c1ccc(NC(=O)CNc2cc(S(=O)(=O)N3CCOCC3)ccc2N2CCCC2)cc1
  A: nt	B: 26µM*	C: 3%	D: 16µM*	E: -15%

21: NC(=O)c1ccc(NC(=O)CNc2cc(S(=O)(=O)N3CCOCC3)ccc2N2CCCC2)cc1
  A: nt	B: ?	C: nt	D: -22%	E: 12%

22: O=C(CNc1cc(S(=O)(=O)N2CCOCC2)ccc1N1CCCC1)Nc1ccc(Cl)cc1
  A: nt	B: 18µM*	C: nt	D: 18µM*	E: ?

23: COC(=O)c1[nH]c2ccccc2c1NC(=O)CN1CCN(C(=O)c2ccco2)CC1
  A: -10%	B: ?	C: 3%	D: ?	E: 3%

24: Cc1cc(C(=O)Nc2cccc(O)c2)c(C)o1
  A: -23%	B: -5%	C: 3%	D: -21%	E: 3%

25: COc1ccccc1CN1C(=O)[C@@H]2C(CCC(N)=O)NC3(C(=O)Nc4c3ccc(Cl)c4C)[C@@H]2C1=O (some centres not stated)
  A: -9%	B: -23%	C: 3%	D: -8%	E: 4%

26: O=c1[nH]c(C2CCN(S(=O)(=O)/C=C/c3ccccc3)CC2)nc2c1nnn2Cc1ccc(F)cc1
  A: 0%	B: 18µM*	C: nt	D: 21µM*	E: -12%

27: O=c1[nH]c(C2CCN(S(=O)(=O)Cc3ccccc3)CC2)nc2c1nnn2Cc1cccc(Cl)c1
  A: -16%	B: 18µM*	C: nt	D: 16µM*	E: -4%

28: O=c1[nH]c(C2CCN(S(=O)(=O)Cc3ccccc3)CC2)nc2c1nnn2Cc1ccccc1
  A: 0%	B: ?	C: 7%	D: ?	E: -3%

29: Cc1ccc(S(=O)(=O)N2CCOCC2)cc1NC(=O)COC(=O)CCn1c(C)csc1=O
  A: 0%	B: -2%	C: 4%	D: -4%	E: 2%

30: COc1ccc(C(C)(C)C)cc1S(=O)(=O)n1ccnc1C
  A: -7%	B: ?	C: 10%	D: 0%	E: -1%

31: Cc1cc(C(=O)CSc2nc3ccc(Cl)cc3[nH]2)c(C)n1Cc1ccco1
  A: nt	B: 18µM*	C: nt	D: 21µM*	E: 1%

32: COc1ccc(NC(=O)CN(C)CC(=O)NC2CCCCC2C)cc1 (configuration not stated)
  A: nt	B: 5%	C: 1%	D: 6%	E: -5%

33: CC(=O)c1ccc(NC(=S)NCc2ccc(Cl)cc2Cl)cc1
  A: 6%	B: 23µM*	C: 0%	D: ?	E: -23%

34: CC(=O)c1cccc(NC(=S)NCCc2ccc(Cl)cc2)c1
  A: 4%	B: 18µM*	C: 0%	D: ?	E: nt

35: COC(=O)c1cccc(NC(=S)NCCC2=CCCCC2)c1
  A: 19%	B: 10µM*	C: 5%	D: 12µM*	E: -6%

36: CC(=O)c1cccc(NC(=S)NCc2ccccc2)c1
  A: -1%	B: -15%	C: nt	D: -3%	E: -1%

37: Cc1ccc(C(C)C)c2oc(=O)cc(-c3ccc(-c4ccc(C(F)(F)F)cc4)cc3)c12
  A: nt	B: 21µM*	C: 0%[56.1 µM]	D: 15µM*	E: 18%

38: COc1cc2oc(=O)cc(-c3ccc(-c4ccc(C(F)(F)F)cc4)cc3)c2c(OC)c1OC
  A: nt	B: ?	C: 0%[56.1 µM]	D: ?	E: 8%

39: Cc1cccc(N2CCN(C(=O)c3ccc(-n4cncn4)c([N+](=O)[O-])c3)CC2)c1C
  A: 3%	B: -26%	C: 7%	D: 21µM*	E: -13%

40: CC1CCN(c2cc(N3CCOCC3)c([N+](=O)[O-])cc2F)CC1
  A: -2%	B: ?	C: 2%	D: -11%	E: -1%

41: Cc1ccc(C(=O)N2CCN(c3ccccc3Cl)CC2)cc1[N+](=O)[O-]
  A: -3%	B: ?	C: 0%	D: 29µM*	E: 7%

42: CC1CCN(c2cc(N3CCN(C(=O)c4ccc(F)c(F)c4)CC3)c([N+](=O)[O-])cc2F)CC1
  A: -3%	B: 23µM*	C: 5%	D: ?	E: -2%

43: CCCNC(=O)CSc1nnc(-c2ccco2)n1C
  A: -5%	B: 13µM*	C: 3%	D: 23µM*	E: -2%

44: CCn1c(Sc2ccc([N+](=O)[O-])cn2)nnc1-c1ccco1
  A: ?	B: 2.1µM*	C: -11%	D: 1.6µM*	E: -13%

45: CCn1c(SCC(=O)OCc2ccccc2)nnc1-c1ccco1
  A: 1%	B: 0%	C: 1%	D: -1%	E: nt

46: O=C(CSc1nnc(-c2ccco2)n1Cc1ccccc1)c1ccccc1
  A: -49%	B: ?	C: 7%	D: ?	E: 0%

47: Cc1cc(C)cc(NC(=O)CSc2nnc(CNC(=O)c3ccco3)n2C)c1
  A: nt	B: 29µM*	C: 1%	D: ?	E: 0%

48: Cn1c(SCC(=O)c2ccc(-c3ccccc3)cc2)nnc1-c1ccco1
  A: -13%	B: 26µM*	C: 0%	D: -24%	E: 0%

49: O=Nc1ccc2oc(=O)ccc2c1
  A: nt	B: nt	C: 23%[56.1 µM]	D: nt	E: nt

Single records, from the list above.
Shown for `O=C(CSc1nnc(-c2ccco2)n1Cc1ccccc1)c1ccccc1` : miR-21 FLuc = -49%; DT40 TDP1 no CPT = ?; TDP1 block = 7%; TDP1 cell CPT = ?; uPA generation = 0%
Shown for `Cc1cc(C)cc(NC(=O)CSc2nnc(CNC(=O)c3ccco3)n2C)c1` : miR-21 FLuc = nt; DT40 TDP1 no CPT = 29µM*; TDP1 block = 1%; TDP1 cell CPT = ?; uPA generation = 0%
